Source: paper PMC9481533, “Structure-based discovery of small molecules that disaggregate Alzheimer’s disease tissue derived tau fibrils in vitro” (Nature Communications, 2022)

Protein sequences, listed by entry. Tags and fused reporters are not part of them. Residues count along the entry.
UniProt P10636, 623-695 limits assumed: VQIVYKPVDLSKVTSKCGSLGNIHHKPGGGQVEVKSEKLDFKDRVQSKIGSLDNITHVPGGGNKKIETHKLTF

Biological target: crude AD brain extracts (tau seeds) in HEK293T tau biosensor cells (Homo sapiens, UniProt P10636)
Test: Tau biosensor cell seeding assay, screen with crude AD brain extracts
Type: cell-based
Conditions: for Number of seeded aggregates in tau biosensor cells (normalized to confluence), Fig. 2e: 10 μM inhibitor on cells, seeds pre-incubated 16–18 h at 4 °C, individual replicates (n=3), DMSO control 10734.9/12808.5/11145.3
From the text: From the in silico screen, compounds were ranked and 46 were selected for further experimental validation based on the total binding energy of the ligand/fibril complex. The experimental assessment consisted of direct measures of fibril disassembly (Fig. 2d, e and Supplementary Table 3) and assessment of the seeding capability of the products of disassembled AD tau fibrils in a biosensor cell assay. Disaggregating molecules that produce active seeds are undesirable for therapy and are excluded from further study. HEK293T cells expressing CFP- or YFP-fused tau are transduced with exogenous AD tau fibrils. Externally applied AD-tau fibrils then induce the aggregation of the endogenous fluorescent tau, resulting in the formation of FRET-positive intracellular aggregates, visible as bright puncta by fluorescence microscopy (Fig. 2f). Automated image analysis of visible puncta provides an objective quantification of seeded aggregation. […] Although biosensors may be limited in reporting structural characteristics of fibril progeny, they offer exquisitely sensitive measures of tau seeding activity—the ability for fibrils to recruit monomeric protein into fibrillar form, which is thought to be the mechanism for tau spreading in AD.
Human autopsy samples were obtained by the Mayo Clinic Brain Bank and UCLA Pathology Department according to HHS regulations from patients consenting to autopsy. Samples were provided to the researchers of this study as anonymized tissues. […]
HEK293T cell lines stably expressing tau-K18 P301S-eYFP were obtained from Marc Diamond[25] and used without further characterization or authentication. […] The number of seeded aggregates was determined by imaging the entire well of a 96-well plate in triplicate using a Celigo Image Cytometer (Nexcelom) in the YFP channel. The number of aggregates in a given image was determined using an ImageJ 2.3.0[50] script, which subtracts the background fluorescence from unseeded cells, and then counts the number of aggregates as peaks with fluorescence above the background using the built-in Particle Analyzer. […]

Row | Compound | Number of seeded aggregates in tau biosensor cells (normalized to confluence), Fig. 2e | Inhibition of seeding in biosensor cells (10 μM screen)
1 | CCCCC1C(=O)N(c2ccccc2)N(c2ccccc2)C1=O [FDA-R20, Phenylbutazone] | 2296.49 and 3309.68 and 5554.06 | modest
2 | CN(C)CCc1c[nH]c2ccc(C[C@H]3COC(=O)N3)cc12 [FDA-R-25, Zolmitriptan] | 10778.7 and 7947.89 and 13610.9 | 

Values joined by “and” are separate entries in the source; they are usually repeats but may differ in a detail not shown here. Equal values may be shown once.
